Results published in ChEMBL document CHEMBL3352405, “Design and synthesis of sulfamoyl benzoic acid analogues with subnanomolar agonist activity specific to the LPA2 receptor” (J Med Chem, 2014).

Amino acid sequences for entries named in this document (tags omitted).
UniProt Q9HBW0, whole entry: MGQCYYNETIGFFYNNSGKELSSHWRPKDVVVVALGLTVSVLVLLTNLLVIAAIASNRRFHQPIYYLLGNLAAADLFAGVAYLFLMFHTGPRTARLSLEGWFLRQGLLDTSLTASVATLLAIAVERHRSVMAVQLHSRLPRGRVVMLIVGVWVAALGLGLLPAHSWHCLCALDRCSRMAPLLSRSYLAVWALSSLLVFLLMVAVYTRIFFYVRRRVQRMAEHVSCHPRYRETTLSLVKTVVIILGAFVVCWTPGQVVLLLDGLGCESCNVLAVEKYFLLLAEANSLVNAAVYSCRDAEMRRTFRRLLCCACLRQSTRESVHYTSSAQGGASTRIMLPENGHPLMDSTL

Target: Lysophosphatidic acid receptor 2 (Homo sapiens, UniProt Q9HBW0)
Test: Agonist activity at human LPA2 expressed in LPA1xLPA2 double knockout mouse MEF cells by Fura-2AM dye based Ca2+ mobilization assay relative to LPA 18:1
Format: functional, cell-based

Emax: 100%
Structure (SMILES): O=C(O)c1ccccc1S(=O)(=O)NCCCN1C(=O)c2cccc3cccc(c23)C1=O
